Assays:
[1] = biological target: GppNHp-loaded KRAS4b (amino acids 1-169) G12C/C118S protein (Homo sapiens, UniProt P01116, C118S/G12C); experiment: Covalent cysteine 12 modification by MALDI-TOF MS, GppNHp-loaded KRAS G12C; format: biochemical; details: 15 minutes reaction time
[2] = biological target: GDP-loaded KRAS4b (amino acids 1-169) G12C/C118S protein (Homo sapiens, UniProt P01116, C118S/G12C); experiment: Covalent cysteine 12 modification by MALDI-TOF MS, GDP-loaded KRAS G12C; format: biochemical; details: 15 minutes reaction time
[3] = biological target: Avi-KRAS G12C (1-169) GppNHp/RAF1 RBD-3xFLAG (52-151) (Homo sapiens, UniProt P01116, G12C); experiment: biochemical; details: Raf1-GppNHp-KRAS G12C disruption, Raf1 RBD-KRAS G12C-GppNHp disruption assay IC50
[4] = compound 95 or later using 1 μM proteins
[5] = compounds 94 or before using 5 μM proteins

GppNHp-KRAS G12C percent of modification [1, 4] | GDP-KRAS G12C percent of modification [2, 4] | IC50 [3] | GppNHp-KRAS G12C percent of modification [1, 5] | GDP-KRAS G12C percent of modification [2, 5] | SMILES
A (percent of modification ≥70%) | A (percent of modification ≥70%) | < 500 nM |  |  | C=CC(=O)N1CC[C@@H](N(C)c2nc(OCC34CCCN3CCC4)nc3c(F)c(-c4ccc(F)c5sc(N)nc45)c(C(F)(F)F)cc23)C1 (atropisomer, axis not shown) [Compound 222]
D (percent of modification <10%) | A (percent of modification ≥70%) | 500 to 5000 nM |  |  | C=CC(=O)N1[C@H](C)CN(c2nc(OC[C@@]34CCCN3C[C@@H](F)C4)nc3c(F)c(-c4ccc(F)c5sc(N)nc45)c(C(F)(F)F)cc23)C[C@@H]1C [Compound 224]
D (percent of modification <10%) | A (percent of modification ≥70%) | > 20000 nM |  |  | C=CC(=O)N1CCCN(c2ncnc3c(F)c(-c4ccc(F)c5sc(N)nc45)c(Cl)cc23)CC1 [Compound 260]
D (percent of modification <10%) | D (percent of modification <10%) | 500 to 5000 nM |  |  | C=CC(=O)N1CC[C@@H](Nc2nc(OC[C@@]34CCCN3C[C@H](F)C4)nc3c(F)c(-c4ccc(F)c5sc(N)nc45)c(C(F)(F)F)cc23)C1 (single isomer, unassigned) [Compound 272]
 |  | 500 to 5000 nM |  |  | C=CC(=O)N1CC[C@@H](N(C)c2nc(OC)nc3c(F)c(-c4ccc(F)c5sc(N)c(C#N)c45)ccc23)[C@H]1C [Compound 461]
 |  | 500 to 5000 nM |  |  | C=CC(=O)N1CC[C@@H](N(C)c2nc(OCCOC)nc3c(F)c(-c4ccc(F)c5sc(N)c(C#N)c45)ccc23)[C@H]1C [Compound 466]
 |  | 500 to 5000 nM |  |  | C=CC(=O)N1CC[C@@H](N(C)c2nc(OC[C@@H]3CC4(CC4)CN3C)nc3c(F)c(-c4ccc(F)c5sc(N)c(C#N)c45)c(Cl)cc23)[C@H]1C (atropisomer, axis not shown) [Compound 448]
 |  | 500 to 5000 nM |  |  | C=CC(=O)N1CC[C@@H](N(C)c2nc(OC[C@@H]3CCCN3CC)nc3c(F)c(-c4ccc(F)c5sc(N)c(C#N)c45)c(Cl)cc23)[C@H]1C (atropisomer, axis not shown) [Compound 464]
 |  | < 500 nM |  |  | C=CC(=O)N1CC[C@@H](N(C)c2nc(OC[C@@H]3CC4(CC4)CN3C)nc3c(F)c(-c4ccc(F)c5sc(N)c(C#N)c45)ccc23)[C@H]1COC [Compound 433]
 |  | < 500 nM |  |  | C=CC(=O)N1CC[C@@H](N(C)c2nc(OC[C@@H]3CCCN3CC)nc3c(F)c(-c4ccc(F)c5sc(N)c(C#N)c45)c(C(F)(F)F)cc23)[C@H]1C (atropisomer, axis not shown) [Compound 451]
 |  | < 500 nM |  |  | C=CC(=O)N1CC[C@@H](N(C)c2nc(OC[C@@H]3CCCN3C)nc3c(F)c(-c4ccc(F)c5sc(N)c(C#N)c45)c(Cl)cc23)[C@H]1C (atropisomer, axis not shown) [Compound 419]
 |  | < 500 nM |  |  | C=CC(=O)N1CC[C@@H](N(C)c2nc(OC[C@@H]3CCCN3C)nc3c(F)c(-c4ccc(F)c5sc(N)c(C#N)c45)ccc23)[C@H]1C [Compound 420]
 |  | < 500 nM |  |  | C=CC(=O)N1CC[C@@H](N(C)c2nc(OC[C@@H]3CCCN3C)nc3c(F)c(-c4ccc(F)c5sc(N)c(C#N)c45)c(Cl)cc23)[C@H]1COC (atropisomer, axis not shown) [Compound 416]
 |  | 500 to 5000 nM |  |  | C=CC(=O)N1CC[C@@H](N(C)c2ncnc3c(F)c(-c4ccc(F)c5sc(N)c(C#N)c45)ccc23)[C@H]1C [Compound 462]

The next lines start with the compound.

SMILES | GppNHp-KRAS G12C percent of modification [1, 4] | GDP-KRAS G12C percent of modification [2, 4] | IC50 [3] | GppNHp-KRAS G12C percent of modification [1, 5] | GDP-KRAS G12C percent of modification [2, 5]
Nc1nc2c(-c3c(Cl)cc4c(N5CCN(C(=O)CCl)CC5)ncnc4c3F)ccc(F)c2s1 [Compound 8] |  |  | 500 to 5000 nM | A (percent of modification ≥70%) | A (percent of modification ≥70%)
C=CC(=O)N1CCN(c2ncnc3c(F)c(-c4ccc(F)c5sc(N)nc45)c(CC#N)cc23)CC1 [Compound 72] |  |  | > 20000 nM | D (percent of modification <10%) | A (percent of modification ≥70%)
C=CC(=O)N1CCN(c2nc(OC[C@@H]3CCCN3CC(F)F)nc3c(F)c(-c4ccc(F)c5sc(N)nc45)c(C(F)(F)F)cc23)CC1 [Compound 156] | D (percent of modification <10%) | C (10%≤percent of modification <50%) | > 20000 nM |  | 
C=CC(=O)N1CC[C@H](N(C)c2nc(OC[C@@]34CCCN3C[C@H](F)C4)nc3c(F)c(-c4ccc(F)c5sc(N)nc45)c(Cl)cc23)C1 [Compound 185] | C (10%≤percent of modification <50%) | C (10%≤percent of modification <50%) | < 500 nM |  | 
C=CC(=O)N1CC(Nc2nc(OCC34CCCN3CC(F)(F)C4)nc3c(F)c(-c4ccc(F)c5sc(N)nc45)c(Cl)cc23)C1 (stereo not drawn) [Compound 145] | D (percent of modification <10%) | C (10%≤percent of modification <50%) | 500 to 5000 nM |  | 
C=CC(=O)N1C2CCC1CN(c1nc(OCC34CCCN3CCC4)nc3c(F)c(-c4ccc(F)c5sc(N)nc45)c(Cl)cc13)C2 [Compound 128] | D (percent of modification <10%) | A (percent of modification ≥70%) | 500 to 5000 nM |  | 
Nc1nc2c(-c3c(Cl)cc4c(N5CC6(CN(C(=O)CCl)C6)C5)ncnc4c3F)ccc(F)c2s1 [Compound 27] |  |  | 5000 to 20000 nM | C (10%≤percent of modification <50%) | B (50≤percent of modification <70%)
C=CC(=O)N1CCCC(Nc2nc(OC[C@@H]3CCCN3C)nc3c(F)c(-c4ccc(F)c5sc(N)nc45)c(Cl)cc23)C1 (stereo partly drawn) [Compound 54] |  |  | 500 to 5000 nM | C (10%≤percent of modification <50%) | B (50≤percent of modification <70%)
C=CC(=O)N1CCN(c2nc(OC[C@@H]3CCCN3C)nc3c(F)c(-c4ccc(F)c5sc(N)nc45)c(-c4cccnc4)cc23)CC1 [Compound 126] | D (percent of modification <10%) | D (percent of modification <10%) | > 20000 nM |  | 
Nc1nc2c(-c3c(Cl)cc4c(N5CCC6(CC5)CN(C(=O)CCl)C6)ncnc4c3F)ccc(F)c2s1 [Compound 25] |  |  | > 20000 nM | D (percent of modification <10%) | A (percent of modification ≥70%)
C=CC(=O)N1CC(N(c2nc(OC[C@@H]3CCCN3C)nc3c(F)c(-c4ccc(F)c5sc(N)nc45)c(Cl)cc23)C2CC2)C1 [Compound 109] | B (50≤percent of modification <70%) | A (percent of modification ≥70%) | < 500 nM |  | 
C=CC(=O)N1CC(Nc2nc(OC[C@@H]3CCCN3C)nc3c(F)c(-c4cccc5oc(N)nc45)c(Cl)cc23)C1 [Compound 88] |  |  | 500 to 5000 nM | C (10%≤percent of modification <50%) | A (percent of modification ≥70%)
C=CC(=O)N1CC(Nc2nc(OCC34CCCN3CCC4)nc3c(F)c(-c4ccc(F)c5sc(N)nc45)c(CC#N)cc23)C1 [Compound 91, 2-(4-((1-acryloylazetidin-3-yl)amino)-7-(2-amino-7-fluorobenzo[d]thiazol-4-yl)-8-fluoro-2-((tetrahydro-1H-pyrrolizin-7a(5H)-yl)methoxy)quinazolin-6-yl)acetonitrile] |  |  | < 500 nM | A (percent of modification ≥70%) | A (percent of modification ≥70%)
C=CC(=O)N1CCN(c2nc(OC[C@@]34CCCN3C[C@@H](F)C4)nc3c(F)c(-c4ccc(F)c5sc(N)nc45)c(C(F)(F)F)cc23)[C@@H](C)C1 [Compound 218] | C (10%≤percent of modification <50%) | A (percent of modification ≥70%) | < 500 nM |  | 
CC#CC(=O)N1CC(N(C)c2nc(OC[C@@H]3CCCN3C)nc3c(F)c(-c4ccc(F)c5sc(N)nc45)c(C(F)(F)F)cc23)C1 [Compound 129] | D (percent of modification <10%) | A (percent of modification ≥70%) | 500 to 5000 nM |  | 
CC#CC(=O)N1CCN(c2nc(OCC34CCCN3CCC4)nc3c(F)c(-c4ccc(F)c5sc(N)nc45)c(-c4ccoc4)cc23)CC1 [Compound 127] | D (percent of modification <10%) | A (percent of modification ≥70%) | 5000 to 20000 nM |  | 
CC#CC(=O)N1CCN(c2nc(OC[C@]34CCCN3C[C@H](F)C4)nc3c(F)c(-c4ccc(F)c5sc(N)nc45)c(C(F)(F)F)cc23)CC1 [Compound 149] | D (percent of modification <10%) | B (50≤percent of modification <70%) | 500 to 5000 nM |  | 
C=CC(=O)N1CC[C@@H]2[C@H]1CN2c1nc(OCC23CCCN2CCC3)nc2c(F)c(-c3ccc(F)c4sc(N)nc34)c(C(F)(F)F)cc12 [Compound 166] | C (10%≤percent of modification <50%) | A (percent of modification ≥70%) | < 500 nM |  | 
C=CC(=O)N1CC(N(C)c2nc(OC[C@@H]3CCCN3C)nc3c(OC4CC4)c(-c4ccc(F)c5sc(N)nc45)c(Cl)cc23)C1 [Compound 184] |  |  | 5000 to 20000 nM |  | 
C=CC(=O)N1CCN(c2nc(OC[C@@]34CCCN3C[C@H](OC)C4)nc3c(F)c(-c4ccc(F)c5sc(N)nc45)c(C(F)(F)F)cc23)CC1 [Compound 209] |  |  | 500 to 5000 nM |  | 

— patent US12528818B2, “Compositions and methods for inhibition of RAS” (Leidos Biomedical Research, Inc., priority 2021, dated 2026)
